Results reported in paper PMC8163823.

The chains behind the UniProt entries cited, without tags or fusion partners.
UniProt O14965, whole entry: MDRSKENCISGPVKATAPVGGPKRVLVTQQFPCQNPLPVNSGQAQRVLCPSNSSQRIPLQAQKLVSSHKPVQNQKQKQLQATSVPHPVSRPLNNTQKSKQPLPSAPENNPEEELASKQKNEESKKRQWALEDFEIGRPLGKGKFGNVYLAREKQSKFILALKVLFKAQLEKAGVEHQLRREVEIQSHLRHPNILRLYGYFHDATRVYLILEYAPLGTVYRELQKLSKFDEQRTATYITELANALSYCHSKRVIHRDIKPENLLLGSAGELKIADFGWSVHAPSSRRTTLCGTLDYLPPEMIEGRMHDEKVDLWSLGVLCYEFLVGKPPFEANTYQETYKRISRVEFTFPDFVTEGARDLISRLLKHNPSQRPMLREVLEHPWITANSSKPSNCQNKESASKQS
UniProt Q96GD4, whole entry: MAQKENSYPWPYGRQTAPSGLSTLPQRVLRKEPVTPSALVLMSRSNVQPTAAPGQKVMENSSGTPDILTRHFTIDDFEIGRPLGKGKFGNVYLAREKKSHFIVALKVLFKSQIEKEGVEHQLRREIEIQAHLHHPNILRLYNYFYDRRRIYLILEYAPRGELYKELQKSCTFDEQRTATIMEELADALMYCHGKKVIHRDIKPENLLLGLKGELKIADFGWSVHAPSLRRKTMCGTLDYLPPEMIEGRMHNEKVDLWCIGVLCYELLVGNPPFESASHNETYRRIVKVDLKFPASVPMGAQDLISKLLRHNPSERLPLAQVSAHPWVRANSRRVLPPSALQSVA

Assays:
AURKA = AURKA (Homo sapiens, UniProt O14965); experiment: Z'-LYTE kinase assay (SelectScreen), ATP at Km ([…]); conditions: read-out: IC50 (nM) AURKA AURKB
AURKB = AURKB (Homo sapiens, UniProt Q96GD4); experiment: as above; conditions: read-out: IC50 (nM) AURKA AURKB

| Compound | IC50 (AURKA) [nM] | IC50 (AURKB) [nM] |
| --- | --- | --- |
| COc1cc(Nc2ncc3c(n2)-c2ccc(Cl)cc2C(c2c(F)cccc2OC)=NC3)ccc1C(=O)NCCOCCOCCOCCOCCOCCOCCNc1cccc2c1C(=O)N(C1CCC(=O)NC1=O)C2=O (stereo not drawn) | 4.78 | 113 |
| COc1cc(Nc2ncc3c(n2)-c2ccc(Cl)cc2C(c2c(F)cccc2OC)=NC3)ccc1C(=O)NCCOCCOCCOCCOCCNc1cccc2c1C(=O)N(C1CCC(=O)NC1=O)C2=O (stereo not drawn) | 3.58 | 77.2 |
| COc1cc(Nc2ncc3c(n2)-c2ccc(Cl)cc2C(c2c(F)cccc2OC)=NC3)ccc1C(=O)NCCOCCOCCOCCOCC(=O)N[C@H](C(=O)N1C[C@H](O)C[C@H]1C(=O)NCc1ccc(-c2scnc2C)cc1)C(C)(C)C | 6.17 | 95.4 |
